Results as given in patent US4389343A, “Immunopotentiating peptides from thymus” (Hoffmann-La Roche Inc., priority 1981, dated 1983).

Tested on: Candida albicans ATCC 10231
Assay: protective activity against opportunistic infections in immunosuppressed mice
Type: in vivo
Details: female ddY mice infected with Candida albicans 24 hours after last treatment
Protocol: The compounds of formula I were tested for protective activity against opportunistic infections in immunosuppressed mice. Female ddY mice (6 weeks old) weighing about 25 g were pretreated daily for eight days with 5-fluorouracil (5-FU) (25 mg/kg/day, i.p.) and with thymosin α1or with compounds of formula I (i.p.) at varying dosages. The mice were then infected with Candida albicans ATCC 10231 (1×10^5 cells or more) at 24 hours after the last treatment. One control group was administered 5-FU and saline solution and a second control group received neither 5-FU nor a thymic polypeptide prior to infection with Candida albicans. The number of animals surviving eight days after infection with Candida albicans and 15 days after infection with Candida albicans is presented in Table IV.

[1] = 0.4 μg/kg/day i.p. daily for eight days with 5-FU 25 mg/kg/day i.p.
[2] = 4 μg/kg/day i.p. daily for eight days with 5-FU 25 mg/kg/day i.p.
[3] = 40 μg/kg/day i.p. daily for eight days with 5-FU 25 mg/kg/day i.p.
[4] = 0.04 μg/kg/day i.p. daily for eight days with 5-FU 25 mg/kg/day i.p.

Row | Substance | Survivors at Day 8 [1] | Survivors at Day 15 [1] | Survivors at Day 8 [2] | Survivors at Day 15 [2] | Survivors at Day 8 [3] | Survivors at Day 15 [3] | Survivors at Day 8 [4] | Survivors at Day 15 [4]
1 | Thymosin β8: polypeptide isolated from calf thymus Fraction 5, 4,518 daltons, 39 amino acid residues, NH2-terminus acetyl alanine (ADKPDLGEINSFDKAKLKKTETQEKNTLPTKETIEQEKQ; thymosin beta-8 N-terminal acetyl; UniProt P21752 2-40, looked up, fragment) | 9/9 | 9/9 | 8/9 | 8/9 | 7/9 | 7/9 |  | 
2 | Thymosin β9: polypeptide from fresh frozen calf thymus, identical to thymosin β8 plus --Ala--LysOH at the COOH-terminus, 4,717 daltons, 41 amino acids (ADKPDLGEINSFDKAKLKKTETQEKNTLPTKETIEQEKQAK; not fully specified; Thymosin beta-9; UniProt P21752 2-42, looked up) | 7/10 | 6/10 | 3/10 | 3/10 | 4/10 | 4/10 | 4/10 | 4/10
